Results on two compounds are retold here after patent US20250319056A1, “METHODS FOR TREATING CANCER” (THE TRUSTEES OF INDIANA UNIVERSITY, priority 2024, published 2025).

The subject of series [1] is HCT-116 cells. The series can be described thus: AlamarBlue cell viability assay, HCT-116 colon cancer cells. It is filed as cell-based, human.
Series [2] in a line: in vitro. The following applies: human.
A short description of series [3]: in vitro. The conditions noted are these: human. This is another data set of the same source.

`Oc1c(Cl)cc(Cl)c(Cl)c1Cc1c(O)c(Cl)cc(Cl)c1Cl` [Compound 32, Hexachlorophene, reference compound]: in series [1], the “Average Selectivity Index” value is given as 10.5. In addition, the CC50 in series [2] was determined as 56.6 µM; in series [3] it was 40.2 µM.
As to `COc1cc(NC(C)CCCN)c2ncccc2c1` (stereo not shown) [Compound 71, Primaquine, reference compound], the “Average Selectivity Index” value in series [1] turned out to be 6.2.
